Measured values as given in US8324384B2, “Glucagon receptor antagonist compounds, compositions containing such compounds and methods of use” (Merck Sharp & Dohme Corp., priority 2010, dated 2012).

Sequences of proteins named here, by UniProt entry; tags and fusion partners are left off. Residues count along the entry.
UniProt P47871, 26-477 limits assumed: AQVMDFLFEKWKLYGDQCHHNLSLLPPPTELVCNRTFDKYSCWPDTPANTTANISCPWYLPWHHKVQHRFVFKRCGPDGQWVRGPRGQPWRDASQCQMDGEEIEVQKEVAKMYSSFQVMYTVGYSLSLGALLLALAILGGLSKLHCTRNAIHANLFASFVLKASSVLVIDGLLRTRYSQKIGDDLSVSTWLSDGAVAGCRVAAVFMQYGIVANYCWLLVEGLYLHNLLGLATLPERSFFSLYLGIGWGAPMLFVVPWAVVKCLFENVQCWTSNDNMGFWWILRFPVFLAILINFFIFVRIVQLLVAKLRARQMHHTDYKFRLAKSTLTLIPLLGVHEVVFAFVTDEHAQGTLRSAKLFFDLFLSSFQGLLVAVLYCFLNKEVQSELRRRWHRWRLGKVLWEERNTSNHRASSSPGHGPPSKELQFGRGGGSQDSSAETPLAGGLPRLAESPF

Target: cloned human glucagon receptor (Homo sapiens, UniProt P47871)
Assay: Glucagon Receptor Binding Assay (125I-Glucagon, SPA, CHO cell membranes)
Settings: inhibition of 125I-Glucagon binding to membranes of CHO cells expressing human glucagon receptor; more active isomer of indicated compounds
Description: Glucagon Receptor Binding Assay
A stable CHO (Chinese hamster ovary) cell line expressing cloned human glucagon receptor was maintained as described (Chiechi, et. al. J Biol Chem 272, 7765-9(1997); Cascieri, et. al. J Biol Chem 274, 8694-7(1999)). To determine antagonistic binding affinity of compounds, 0.001-0.003 mg of cell membranes from these cells were pre-incubated with 0.100 mg WGA-coated PVT SPA beads (Amersham) for 20 minutes at room temperature in 25 μL of a buffer containing 50 mM Tris-HCl (pH 7.5), 5 mM MgCl2, 2 mM EDTA, 0.1% BSA and 3% glycerol in Costar 384 well plates with clear bottoms (#3706). Next, 25 μL of ^125I-Glucagon (New England Nuclear, MA) (1×10^−14 mol per well) and either 1 μL solutions of test compounds or 0.001 mM unlabeled glucagon or DMSO were added and mixed. After 4-12 hours incubation at room temperature, the radioactivity bound to the cell membranes was determined in a radioactive emission detection counter (Wallac-Microbeta). Data were analyzed using the Data Analyzer software program of Merck & Co., Inc. The IC50 values were calculated using non-linear regression analysis assuming single-site competition.

## CCCC(c1ccc(C(=O)NCCC(=O)O)cc1)C(C(=O)N1CCc2cc(F)ccc2C1)c1ccc(Cl)cc1 (stereo not shown)
  IC50: 2 nM
